# Source: PubChem BioAssay AID652083 (The Scripps Research Institute Molecular Screening Center, 2013)
# This is one part of the list. Calls of active or inactive are those of the source.
# Tested on: Na+ channel (site 2)
# Assay: PubChem AID 652083
# Settings: CEREP radioligand binding panel, % inhibition at 10 uM, hits give high values
smiles,measurement,value
COC(=O)c1cc(Br)cnc1N1CCC(NC2CCCCC2)C(O)C1 (stereo unspecified),inhibition of specific binding,active: 67%
